This note sets out measurements from patent publication US11116757B2 (priority 2015, dated 2021).

The chains behind the UniProt entries cited, without tags or fusion partners. Residues count along the entry.
UniProt Q96GG9, 60-248 limits assumed: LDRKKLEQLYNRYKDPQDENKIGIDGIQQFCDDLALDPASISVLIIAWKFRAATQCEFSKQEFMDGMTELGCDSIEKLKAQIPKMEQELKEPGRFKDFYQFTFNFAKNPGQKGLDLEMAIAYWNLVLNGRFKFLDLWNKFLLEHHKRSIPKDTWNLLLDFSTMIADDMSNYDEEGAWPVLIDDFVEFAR

The target of this test is DCN1-UBC12 interaction (Homo sapiens (Human), UniProt Q96GG9). It counts as binding. To be noted: read-out: TR-FRET IC50. In general terms: In TR-FRET formats the signal depends on donor and acceptor labels being close together.
What is called IC50 is the midpoint of a concentration-inhibition curve. Regarding `CCCC(C)N1CCC(N(Cc2ccccc2)C(=O)Nc2ccc3ncsc3c2)CC1` (centres unmarked) [A73], the IC50 came out at 626 nM.

Consider `CCCC(C)N1CCC(N(Cc2ccccc2)C(=O)Nc2ccc(F)c(F)c2)CC1` (centres unmarked) [A80], for which the IC50 was found to be 817 nM.

In the case of `CCCC(C)N1CCC(N(Cc2ccccc2)C(=O)Nc2ccc(C#N)c(C(F)(F)F)c2)CC1` (centres unmarked) [A47], the IC50 amounted to 259 nM.

`CCCC(C)N1CCC(N(Cc2ccccc2)C(=O)Nc2ccc(C(C)C)cc2)CC1` (centres unmarked) [A74]: the IC50 stood at 654 nM.

As for `Cc1ccc(CN2CCC(NC(=O)Nc3cccc(C(F)(F)F)c3)CC2)cc1` [A179, 1-(1-(4-Methylbenzyl)Piperidin-4-yl)-3-(3-(Trifluoromethyl)Phenyl)Urea], the half-maximal inhibitory concentration (IC50) was found to be 16600 nM.
